Data from ChEMBL document CHEMBL3351265, “Astemizole arrests the proliferation of cancer cells by disrupting the EZH2-EED interaction of polycomb repressive complex 2” (J Med Chem, 2014).

Chains of the proteins cited; added tags and fusions are not shown.
UniProt O75530, whole entry: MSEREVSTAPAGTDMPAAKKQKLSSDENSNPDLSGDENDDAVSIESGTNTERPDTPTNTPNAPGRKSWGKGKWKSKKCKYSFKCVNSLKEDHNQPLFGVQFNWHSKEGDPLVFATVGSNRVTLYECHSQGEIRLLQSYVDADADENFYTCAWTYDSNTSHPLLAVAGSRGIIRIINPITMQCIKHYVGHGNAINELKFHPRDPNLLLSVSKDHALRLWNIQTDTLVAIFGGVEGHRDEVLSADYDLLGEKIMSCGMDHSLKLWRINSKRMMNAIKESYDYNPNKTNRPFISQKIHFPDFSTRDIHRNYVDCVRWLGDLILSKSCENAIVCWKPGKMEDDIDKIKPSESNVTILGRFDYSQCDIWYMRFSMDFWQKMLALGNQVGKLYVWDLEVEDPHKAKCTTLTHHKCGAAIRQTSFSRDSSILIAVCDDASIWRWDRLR

Biological target: Polycomb protein EED (Homo sapiens, UniProt O75530)
Test: Displacement of FITC-labeled EZH2 peptide from recombinant N-terminal 6His-tagged EED (residues 81 to 441) (unknown origin) expressed in Escherichia coli strain BL21 (DE3) after 1 hr by fluorescence polarization assay

SMILES: COc1ccc(CCN2CCC(Nc3nc4ccccc4n3Cc3ccc(F)cc3)CC2)cc1 [ASTEMIZOLE]
- IC50: 93.8 µM
